Earlier results in patent US5861405A, “S-substituted 1,3,7-trialkyl-xanthine derivatives” (priority 1994, dated 1999).

Test system: A2 receptors
Conditions: background; cited from earlier work

SMILES: C#CCn1c(=O)c2c(ncn2C)n(C)c1=O [DMPX, 3,7-dimethyl-1-propargylxanthine]
- A2 selectivity, in words: A2 -selective but by less than one order of magnitude
